# Assay results taken from ChEMBL document CHEMBL1145458, “Novel vanilloid receptor-1 antagonists: 1. Conformationally restricted analogues of trans-cinnamides” (J Med Chem, 2007).
# By UniProt entry, the sequences of proteins in these tests, tags left out.
# UniProt O35433, whole entry: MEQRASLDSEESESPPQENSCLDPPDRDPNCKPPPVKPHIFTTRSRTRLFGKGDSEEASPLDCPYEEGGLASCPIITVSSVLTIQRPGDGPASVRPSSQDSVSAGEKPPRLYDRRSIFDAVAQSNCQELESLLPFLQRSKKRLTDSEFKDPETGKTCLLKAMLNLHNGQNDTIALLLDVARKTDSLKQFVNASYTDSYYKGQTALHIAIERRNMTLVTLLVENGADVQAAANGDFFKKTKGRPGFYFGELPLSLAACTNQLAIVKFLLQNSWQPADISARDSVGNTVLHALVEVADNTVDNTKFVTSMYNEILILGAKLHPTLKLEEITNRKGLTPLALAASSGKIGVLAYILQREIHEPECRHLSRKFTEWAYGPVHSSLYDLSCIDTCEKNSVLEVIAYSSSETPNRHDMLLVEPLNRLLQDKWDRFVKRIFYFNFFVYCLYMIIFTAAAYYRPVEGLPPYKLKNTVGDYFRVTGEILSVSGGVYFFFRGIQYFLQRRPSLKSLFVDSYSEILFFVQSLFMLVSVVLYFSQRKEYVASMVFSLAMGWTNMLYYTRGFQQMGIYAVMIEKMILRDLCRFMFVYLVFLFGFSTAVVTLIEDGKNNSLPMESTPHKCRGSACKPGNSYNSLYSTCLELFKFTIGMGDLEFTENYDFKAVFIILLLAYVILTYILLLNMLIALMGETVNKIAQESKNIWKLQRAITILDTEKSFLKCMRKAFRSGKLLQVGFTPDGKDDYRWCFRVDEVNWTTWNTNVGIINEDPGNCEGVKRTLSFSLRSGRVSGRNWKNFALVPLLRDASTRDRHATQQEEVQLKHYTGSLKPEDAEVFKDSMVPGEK
# pIC50: −log10 of the molar value.
# Experiments:
# [1] = target: T1, Transient receptor potential cation channel subfamily V member 1 (Rattus norvegicus, UniProt O35433); assay: Antagonist activity at rat TRPV1 expressed in CHO cells assessed as inhibition of capsaicin-induced calcium influx; assay type: functional, cell-based
# How it was run: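 Human or rat TRPV1-CHO cells were preincubated with compound for 2 min at room temperature in HBSS with 0.1 mg/mL BSA and 1 mM HEPES pH 7.4. Cells were washed and radioactivity counted. IC50 is the mean of at least two experiments, triplicate per concentration, ±SEM.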
# [2] = target: T1, Transient receptor potential cation channel subfamily V member 1; assay: Antagonist activity at rat TRPV1 expressed in CHO cells assessed as inhibition of acid-induced calcium influx; assay type: functional, cell-based
# How it was run: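 CHO cells stably transfected with human or rat TRPV1 were preincubated with compound for 2 min at room temperature. After washout, uptake was read by scintillation counting. IC50 values come from inhibition curves, averaging at least two experiments run in triplicate.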
pIC50 [1],pIC50 [2],Compound
7.10,6.46,CC(C)(C)c1ccc(/C=C/C(=O)Nc2ccc3c(c2)OCCO3)cc1
8.35,–,FC(F)(F)c1ccc(-c2cc(Nc3ccc4cccnc4c3)ncn2)cc1
